The chains behind the UniProt entries cited, without tags or fusion partners. Residues count along the entry.
UniProt O60894, 27-148 limits assumed: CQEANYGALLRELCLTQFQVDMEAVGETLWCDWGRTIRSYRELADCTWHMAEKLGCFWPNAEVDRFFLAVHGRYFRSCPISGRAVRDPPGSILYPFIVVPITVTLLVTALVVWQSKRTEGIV
UniProt Q16602, 23-461 limits assumed: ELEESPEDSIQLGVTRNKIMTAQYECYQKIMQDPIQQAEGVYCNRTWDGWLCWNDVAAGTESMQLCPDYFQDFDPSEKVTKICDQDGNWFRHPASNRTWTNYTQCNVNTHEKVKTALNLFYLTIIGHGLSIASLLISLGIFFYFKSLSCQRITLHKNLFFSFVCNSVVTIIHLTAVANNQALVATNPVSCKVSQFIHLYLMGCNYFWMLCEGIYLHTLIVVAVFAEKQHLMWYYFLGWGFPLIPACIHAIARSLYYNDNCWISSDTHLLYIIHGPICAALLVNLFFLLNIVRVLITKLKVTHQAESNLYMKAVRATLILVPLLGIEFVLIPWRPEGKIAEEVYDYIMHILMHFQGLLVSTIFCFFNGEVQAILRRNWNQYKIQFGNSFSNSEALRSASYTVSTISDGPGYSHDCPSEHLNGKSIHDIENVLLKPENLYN

Several values for one entry are separate records, joined by “and”; a condition that tells them apart may be missing. Equal values may be shown once.
These compounds were tested against recombinant human CL receptor/RAMP1 (Homo sapiens (Human), UniProt O60894+Q16602) (assay: Recombinant receptor binding assay (125I-hCGRP)). Conditions: membranes of HEK 293 cells expressing human CL receptor/RAMP1, 10 pM 125I-hCGRP.
Description: RECOMBINANT RECEPTOR: Human CL receptor (Genbank accession number L76380) was subcloned into the expression vector pIREShyg2 (BD Biosciences Clontech) as a 5′NheI and 3′ PmeI fragment. Human RAMP 1 (Genbank accession number AJ001014) was subcloned into the expression vector pIRESpuro2 (BD Biosciences Clontech) as a 5′NheI and 3′NotI fragment. HEK 293 cells (human embryonic kidney cells; ATCC #CRL-1573) were cultured in DMEM with 4.5 g/L glucose, 1 mM sodium pyruvate and 2 mM glutamine supplemented with 10% fetal bovine serum (FBS), 100 units/mL penicillin and 100 μg/mL streptomycin, and maintained at 37° C. and 95% humidity. Cells were subcultured by treatment with 0.25% trypsin with 0.1% EDTA in HBSS. Stable cell line generation was accomplished by co-transfecting 10 μg of DNA with 30 μg Lipofectamine 2000 (Invitrogen) in 75 cm^2 flasks. CL receptor and RAMP1 expression constructs were co-transfected in equal amounts. Twenty-four hours after transfection the cells were diluted and selective medium (growth medium+300 μg/mL hygromycin and 1 μg/mL puromycin) was added the following day. A clonal cell line was generated by single cell deposition utilizing a FACS Vantage SE (Becton Dickinson). Growth medium was adjusted to 150 μg/mL hygromycin and 0.5 μg/mL puromycin for cell propagation.
RECOMBINANT RECEPTOR BINDING ASSAY: Cells expressing recombinant human CL receptor/RAMP1 were washed with PBS and harvested in harvest buffer containing 50 mM HEPES, 1 mM EDTA and Complete protease inhibitors (Roche). The cell suspension was disrupted with a laboratory homogenizer and centrifuged at 48,000 g to isolate membranes. The pellets were resuspended in harvest buffer plus 250 mM sucrose and stored at −70° C. For binding assays, 20 μg of membranes were incubated in 1 ml binding buffer (10 mM HEPES, pH 7.4, 5 mM MgCl2, and 0.2% BSA) for 3 hours at room temperature containing 10 pM ^125I-hCGRP (GE Healthcare) and antagonist. The assay was terminated by filtration through 96-well GFB glass fiber filter plates (PerkinElmer) that had been blocked with 0.05% polyethyleneimine. The filters were washed 3 times with ice-cold assay buffer (10 mM HEPES, pH 7.4 and 5 mM MgCl2). Scintillation fluid was added and the plates were counted on a Topeount (Packard). Non-specific binding was determined and the data analysis was carried out with the apparent dissociation constant (Ki) determined by using a non-linear least squares fitting the bound CPM data to the equation below:
[formula] Where Y is observed CPM bound, Ymax is total bound counts, Ymin is non specific bound counts, (Ymax−Ymin) is specific bound counts, % Imax is the maximum percent inhibition, % I min is the minimum percent inhibition, radiolabel is the probe, and the Kd is the apparent dissociation constant for the radioligand for the receptor as determined by Hot saturation experiments.
Compound `O=C1C(c2ccc(F)cc2)NCCN1Cc1ccc2cc3c(cc2n1)CC1(C3)C(=O)Nc2ncccc21` (stereo not drawn) has a Ki of 1.8 nM.
In the case of `O=C(c1ccc2cc3c(cc2n1)CC1(C3)C(=O)Nc2ncccc21)N1CCC2(CC1)OCc1ccccc12` (stereo not drawn), the Ki is reported as 7400 nM.
For `O=C1COc2ccccc2N1Cc1ccc2cc3c(cc2n1)CC1(C3)C(=O)Nc2ncccc21` (stereo not drawn), the Ki was 4.2 nM and 2.9 nM.

Same assay, conditions: membranes of HEK 293 cells expressing human CL receptor/RAMP1, 10 pM 125I-hCGRP; tested form: TFA
With `CC(C)[C@H]1CN(C)CCN1Cc1ccc2cc3c(cc2n1)CC1(C3)C(=O)NC(=O)N1C` (stereo partly drawn) the Ki was 1700 nM.
Compound `CN1C(=O)NC(=O)C12Cc1cc3ccc(CN4CCC(Cn5ccnc5)CC4)nc3cc1C2` (stereo not drawn) has a Ki of 85 nM.
In the case of `CN1C(=O)NC(=O)C12Cc1cc3ccc(CN4CCC(Cc5ccccc5)CC4)nc3cc1C2` (racemic) [Example 7, (±)-2-[(4-Benzylpiperidin-1-yl)methyl]-3′-methyl-6,8-dihydro-2′H,5′H-spiro[cyclopenta[g]quinoline-7,4′-imidazolidine]-2′,5′-dione], the Ki is reported as 1100 nM.
